Antibody variant affinities, Ab-91 heavy chain, assay 2

Binding partner: SARS-CoV-2 spike HR2 peptide, sequence PDVDLGDISGINAS.

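The starting antibody came from a phage panning campaign against this peptide. AAYL51 was designed without a model: most single CDR substitutions and a random sample of double and triple ones. The scFvs were displayed on barcoded MATa yeast, the peptide on MATalpha yeast. The frequency of each diploid, read from paired DNA barcodes, reflects how well the two displayed proteins bind. Scores were corrected for input abundance and mapped to Kd with protein pairs of known affinity run in the same pool. There are three technical replicates.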

Ab-91 is the parent antibody, in scFv form: VL, then a 15-residue (Gly4Ser)3 linker, then VH. The light chain is unchanged in all variants.
VL: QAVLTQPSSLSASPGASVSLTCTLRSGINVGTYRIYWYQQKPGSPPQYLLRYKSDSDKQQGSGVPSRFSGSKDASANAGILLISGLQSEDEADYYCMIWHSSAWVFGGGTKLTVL
VH: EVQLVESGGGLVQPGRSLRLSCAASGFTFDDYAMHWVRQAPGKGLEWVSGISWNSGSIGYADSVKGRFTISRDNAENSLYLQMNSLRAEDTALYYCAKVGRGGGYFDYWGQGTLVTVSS

Substitutions are numbered in sequence along the VH above, starting at 1 (not Kabat).
The read-out is the apparent dissociation constant on a log10 scale (nM): the lower, the stronger.
Replicates are averaged; those with no signal do not enter the mean.
A pair that was not seen in that replicate is written "n.d."; this usually means weak binding, but a binder can also be missed.
Empty control strains, which show no peptide, gave a signal in 21% of pairings with library AAYL51; the median was 4.54 and 95% of these signals were weaker than 3.26. No background was subtracted. For each scFv, signals with the empty controls are counted beside the result, with their mean in brackets.
In this assay the parent's reference entry averaged 1.86; its copy inside this library read 0.88.

| # | changes | log10 Kd (nM) by replicate | mean log10 Kd (nM) | signal with controls |
|---|---|---|---|---|
| 1 | S55R+S57N | n.d. / n.d. / 4.58 | 4.58 | 2/9 (4.31) |
| 2 | S55Y+V64C+Y105N | n.d. / n.d. / n.d. | n.d. | 1/9 (3.58) |
| 3 | D30I+I51W+Y108W | 3.80 / n.d. / n.d. | 3.80 | 0/9 |
| 4 | W53E+S63V+Y105I | 6.05 / 5.36 / n.d. | 5.71 | 5/9 (5.02) |
| 5 | D30F+A33G+G100Q | n.d. / n.d. / n.d. | n.d. | 0/9 |
| 6 | A33G+W53M+Y60M | 1.04 / 1.22 / 0.30 | 0.86 | 1/9 (5.22) |
| 7 | I51H+W53I+K65L | n.d. / n.d. / 3.05 | 3.05 | 0/9 |
| 8 | G103R+G104A+Y105M | 5.72 / 4.54 / n.d. | 5.13 | 6/9 (4.95) |
| 9 | S63E+V64P | 5.24 / n.d. / 4.24 | 4.74 | 1/9 (5.04) |
| 10 | Y32S+D62Y+G103M | n.d. / n.d. / n.d. | n.d. | 0/9 |
| 11 | H35Q+G59M+Y60A | n.d. / 4.44 / n.d. | 4.44 | 3/9 (3.57) |
| 12 | G56M+Y60V+D107W | 1.94 / 2.21 / 1.43 | 1.86 | 2/9 (4.59) |
| 13 | A33T+I51L+F106E | 4.71 / n.d. / n.d. | 4.71 | 3/9 (5.04) |
| 14 | N54V+G103L+F106M | n.d. / n.d. / n.d. | n.d. | 0/9 |
| 15 | G26F+W53L+V64A | 6.16 / n.d. / 4.96 | 5.56 | 5/9 (4.52) |
| 16 | F27W+W53I+F106Y | n.d. / n.d. / n.d. | n.d. | 0/9 |
| 17 | F27Q+Y108K | 3.49 / 3.31 / 3.27 | 3.36 | 3/9 (5.16) |
| 18 | I51D+N54M+Y108V | n.d. / n.d. / 5.10 | 5.10 | 5/9 (4.62) |
| 19 | D31I+S55E+V99S | n.d. / 4.31 / n.d. | 4.31 | 1/9 (3.94) |
| 20 | T28L+H35W+I51C | 4.92 / 5.49 / 4.88 | 5.10 | 6/9 (4.55) |
| 21 | S52L+G100W+G103R | 4.53 / n.d. / n.d. | 4.53 | 3/9 (4.18) |
| 22 | G59Y+D62K+V64A | n.d. / 4.58 / n.d. | 4.58 | 2/9 (3.76) |
| 23 | G56F+D62F+G104S | n.d. / n.d. / n.d. | n.d. | 0/9 |
| 24 | T28I+D62S+Y108W | 4.92 / 5.26 / 4.40 | 4.86 | 6/9 (5.41) |
| 25 | F29H+Y60Q+G100K | n.d. / n.d. / n.d. | n.d. | 1/9 (4.59) |
| 26 | I58R+G100V | 3.06 / 3.00 / 2.40 | 2.82 | 2/9 (4.29) |
| 27 | A33Q+Y60K+G103W | n.d. / n.d. / n.d. | n.d. | 2/9 (3.82) |
| 28 | M34V+G100F+R101L | 2.90 / n.d. / 4.03 | 3.46 | 0/9 |
| 29 | D30W+S55D+D107Q | 5.23 / 5.14 / n.d. | 5.19 | 3/9 (4.65) |
| 30 | Y32H+H35G | 3.50 / n.d. / 3.97 | 3.73 | 3/9 (4.44) |
| 31 | G59K+A61D+G103Y | 5.10 / n.d. / n.d. | 5.10 | 0/9 |
| 32 | A33E+I51G+G100H | n.d. / n.d. / n.d. | n.d. | 2/9 (4.41) |
| 33 | G56E+Y60R+V99S | n.d. / n.d. / n.d. | n.d. | 0/9 |
| 34 | F29G+A33M+G102V | n.d. / n.d. / n.d. | n.d. | 2/9 (3.97) |
| 35 | M34G+N54F+R101D | n.d. / n.d. / n.d. | n.d. | 1/9 (4.01) |
| 36 | D31G+I51M+Y60P | n.d. / n.d. / n.d. | n.d. | 0/9 |
| 37 | S57H+K65G | 2.15 / 1.94 / 1.78 | 1.96 | 1/9 (4.00) |

The last 5 entries again:

{"changes": "G56E+Y60R+V99S", "log10 Kd (nM) by replicate": "n.d. / n.d. / n.d.", "mean log10 Kd (nM)": "n.d.", "signal with controls": "0/9"}
{"changes": "F29G+A33M+G102V", "log10 Kd (nM) by replicate": "n.d. / n.d. / n.d.", "mean log10 Kd (nM)": "n.d.", "signal with controls": "2/9 (3.97)"}
{"changes": "M34G+N54F+R101D", "log10 Kd (nM) by replicate": "n.d. / n.d. / n.d.", "mean log10 Kd (nM)": "n.d.", "signal with controls": "1/9 (4.01)"}
{"changes": "D31G+I51M+Y60P", "log10 Kd (nM) by replicate": "n.d. / n.d. / n.d.", "mean log10 Kd (nM)": "n.d.", "signal with controls": "0/9"}
{"changes": "S57H+K65G", "log10 Kd (nM) by replicate": "2.15 / 1.94 / 1.78", "mean log10 Kd (nM)": "1.96", "signal with controls": "1/9 (4.00)"}

The measurements come from Engelhart et al. 2022 (doi:10.1038/s41597-022-01779-4) through the FLAb antibody collection.